Reference: US20230391714A1, “INHIBITORS OF THE INTERACTION BETWEEN TRIP8B AND HCN CHANNELS AND USES THEREOF FOR TREATING NEUROLOGICAL DISEASES AND DISORDERS” (Northwestern University, priority 2022, published 2023)

Protein sequences, listed by entry. Tags and fused reporters are not part of them. Residues count along the entry.
UniProt Q8IYB4, 265-626 limits assumed: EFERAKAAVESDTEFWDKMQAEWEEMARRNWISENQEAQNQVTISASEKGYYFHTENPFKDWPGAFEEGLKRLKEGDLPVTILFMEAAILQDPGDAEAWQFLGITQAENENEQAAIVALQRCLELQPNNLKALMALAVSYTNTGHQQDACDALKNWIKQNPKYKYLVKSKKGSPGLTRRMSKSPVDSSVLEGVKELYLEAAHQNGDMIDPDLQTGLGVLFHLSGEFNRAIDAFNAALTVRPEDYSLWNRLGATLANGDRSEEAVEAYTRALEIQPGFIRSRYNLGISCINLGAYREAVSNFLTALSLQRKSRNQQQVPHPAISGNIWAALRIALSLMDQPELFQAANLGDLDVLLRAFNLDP

Target: TRIP8b-HCN1c40 (Homo sapiens (Human), UniProt Q8IYB4)
Assay: TRIP8b-HCN1c40 AlphaScreen assay
Conditions: read-out: TRIP8b-HCN1c40 Alphascreen IC50
Method: AlphaScreen Assay. 20 nM ofGST-tagged HCNlc40 protein (corresponding to the C terminal 40 amino acids of HCN1) was incubated with 200 nM of His-tagged TRIP8b(241-602) and varying concentrations of the test compound as described in our prior report (Han et al., 2015). After a 3 h incubation, anti-GST AlphaScreen acceptor beads were added for 1.5 h followed by AlphaScreen nickel chelate donor beads for 1.5 h. AlphaScreen signal was quantified using a PerkinElmer (Waltham, MA) EnSpire multimode plate reader.

CN1CCN(Cc2cc(Br)ccc2OCC(=O)NCc2ccc(Cl)cc2)CC1
IC50: 120 µM

CN1CCN(Cc2cc(-c3ccc(C#N)cc3)ccc2OCC(=O)NCc2ccc(Cl)cc2)CC1
IC50: 38 µM

Cc1ccc(-c2ccc(OCC(=O)NCc3ccc(Cl)cc3)c(CN3CCN(C)CC3)c2)cc1
IC50: 8.7 µM

Cc1ccc(-c2ccc(OCC(=O)Nc3ccc(-n4cccn4)cc3)c(CN3CCOCC3)c2)cc1
IC50: 11 µM

Cc1ccc(-c2ccc(OCC(=O)Nc3ccc(F)cc3)c(CN3CCOCC3)c2)cc1
IC50: 12 µM

CN1CCN(Cc2cc(-c3ccc(C(N)=O)cc3)ccc2OCC(=O)NCc2ccc(Cl)cc2)CC1
IC50: 92 µM

CN1CCN(Cc2cc(-c3ccc([N+](=O)[O-])cc3)ccc2OCC(=O)NCc2ccc(Cl)cc2)CC1
IC50: 16 µM

CN1CCN(Cc2cc(-c3ccc(O)cc3)ccc2OCC(=O)NCc2ccc(Cl)cc2)CC1
IC50: 42 µM
